Publication PMC9463443 (Cell Discovery, 2022)

Key:
CENP-C^[…] = molecular target: T1, CENP-C^[…] (human); assay: cryo-EM structure; CCAN reconstituted from purified sub-complexes with CENP-A nucleosome (147 bp Widom 601), purified on Superose 6 in 20 mM HEPES-Na pH 7.5, 300 mM NaCl, 0.5 mM TCEP, cross-linked with 5 mM BS3; 3.3 Å map; no particles with the nucleosome were seen; details: both partners purified
T1 construct: CENP-C, human, […]; the sample was cross-linked with BS3; also called […] truncation of CENP-C; source: Sf9, co-infected with CENP-LN P3 virus (CENP-LNC^[…] complex), purified (Ni-NTA, SEC)

CENP-OPQUR sub-complex = molecular target: T2, CENP-OPQUR sub-complex (human, UniProt Q9BU64 1-300; Q6IPU0 1-288; Q7L2Z9 1-268; Q71F23 1-418; Q13352 1-177); assay: as above; details: both partners purified
T2 construct: CENP-O, human; CENP-P, human; CENP-Q, human; CENP-U, human; CENP-R, human; source: Sf9, purified (Ni-NTA, Mono S, SEC); copies: + + + +
T2 sequence (looked up) 1: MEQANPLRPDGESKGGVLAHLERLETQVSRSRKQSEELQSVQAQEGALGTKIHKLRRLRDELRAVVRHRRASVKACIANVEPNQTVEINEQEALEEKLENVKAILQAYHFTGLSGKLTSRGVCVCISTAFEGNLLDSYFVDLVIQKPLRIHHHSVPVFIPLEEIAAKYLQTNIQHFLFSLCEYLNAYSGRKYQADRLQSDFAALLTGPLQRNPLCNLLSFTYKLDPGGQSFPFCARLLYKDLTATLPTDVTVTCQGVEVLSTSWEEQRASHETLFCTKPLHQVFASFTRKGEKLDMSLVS
T2 sequence (looked up) 2: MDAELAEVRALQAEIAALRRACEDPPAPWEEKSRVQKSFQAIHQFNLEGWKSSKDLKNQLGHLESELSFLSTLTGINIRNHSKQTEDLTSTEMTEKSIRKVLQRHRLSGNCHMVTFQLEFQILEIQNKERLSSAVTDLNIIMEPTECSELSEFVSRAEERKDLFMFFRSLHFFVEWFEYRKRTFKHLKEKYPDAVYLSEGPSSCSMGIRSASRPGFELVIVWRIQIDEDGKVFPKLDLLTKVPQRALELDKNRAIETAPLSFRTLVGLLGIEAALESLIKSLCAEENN
T2 sequence (looked up) 3: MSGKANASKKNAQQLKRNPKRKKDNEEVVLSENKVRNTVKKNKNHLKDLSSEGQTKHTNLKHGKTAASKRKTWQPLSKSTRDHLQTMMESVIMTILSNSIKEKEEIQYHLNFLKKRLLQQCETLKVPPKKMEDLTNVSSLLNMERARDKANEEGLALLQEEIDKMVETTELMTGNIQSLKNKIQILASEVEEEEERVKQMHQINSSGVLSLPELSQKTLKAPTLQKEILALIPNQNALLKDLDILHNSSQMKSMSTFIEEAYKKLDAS
T2 sequence (looked up) 4: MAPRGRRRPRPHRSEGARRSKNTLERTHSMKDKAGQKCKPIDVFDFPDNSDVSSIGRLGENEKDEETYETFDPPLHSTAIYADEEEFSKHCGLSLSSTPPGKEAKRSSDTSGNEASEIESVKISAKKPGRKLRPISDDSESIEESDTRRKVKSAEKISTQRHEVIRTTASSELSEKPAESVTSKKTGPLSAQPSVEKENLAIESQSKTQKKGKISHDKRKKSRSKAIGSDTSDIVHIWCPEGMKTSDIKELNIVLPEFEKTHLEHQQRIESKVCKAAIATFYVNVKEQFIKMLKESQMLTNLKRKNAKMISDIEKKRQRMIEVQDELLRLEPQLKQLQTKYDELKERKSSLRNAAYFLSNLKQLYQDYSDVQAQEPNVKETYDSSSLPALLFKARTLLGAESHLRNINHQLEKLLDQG
T2 sequence (looked up) 5: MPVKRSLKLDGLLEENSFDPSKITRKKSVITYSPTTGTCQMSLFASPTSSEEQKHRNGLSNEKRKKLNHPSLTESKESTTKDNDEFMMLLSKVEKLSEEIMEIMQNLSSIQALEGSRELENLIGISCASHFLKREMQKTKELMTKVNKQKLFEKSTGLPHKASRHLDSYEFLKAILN

binding result (CENP-C^[…]): binds
B1: CENP-H (natural protein, human, UniProt Q9H3R5 1-247, looked up)
chain: MEEQPQMQDADEPADSGGEGRAGGPPQVAGAQAACSEDRMTLLLRLRAQTKQQLLEYKSMVDASEEKTPEQIMQEKQIEAKIEDLENEIEEVKVAFEIKKLALDRMRLSTALKKNLEKISRQSSVLMDNMKHLLELNKLIMKSQQESWDLEEKLLDIRKKRLQLKQASESKLLEIQTEKNKQKIDLDSMENSERIKIIRQNLQMEIKITTVIQHVFQNLILGSKVNWAEDPALKEIVLQLEKNVDMM
notes: CENP-H, human; source: Hi5 insect cells, co-expressed as CENP-HIKM, purified (Ni-NTA, Mono Q, SEC)

binding result (CENP-C^[…]): binds
B2: CENP-K (natural protein, human, UniProt Q9BS16 1-269, looked up)
chain: MNQEDLDPDSTTDVGDVTNTEEELIRECEEMWKDMEECQNKLSLIGTETLTDSNAQLSLLIMQVKCLTAELSQWQKKTPETIPLTEDVLITLGKEEFQKLRQDLEMVLSTKESKNEKLKEDLEREQRWLDEQQQIMESLNVLHSELKNKVETFSESRIFNELKTKMLNIKEYKEKLLSTLGEFLEDHFPLPDRSVKKKKKNIQESSVNLITLHEMLEILINRLFDVPHDPYVKISDSFWPPYVELLLRNGIALRHPEDPTRIRLEAFHQ
notes: CENP-K, human; source: Hi5 insect cells, co-expressed as CENP-HIKM, purified (Ni-NTA, Mono Q, SEC)

binding result (CENP-C^[…]): binds
B3: CENP-M (natural protein, human, UniProt Q9NSP4 1-180, looked up)
chain: MSVLRPLDKLPGLNTATILLVGTEDALLQQLADSMLKEDCASELKVHLAKSLPLPSSVNRPRIDLIVFVVNLHSKYSLQNTEESLRHVDASFFLGKVCFLATGAGRESHCSIHRHTVVKLAHTYQSPLLYCDLEVEGFRATMAQRLVRVLQICAGHVPGVSALNLLSLLRSSEGPSLEDL
notes: CENP-M, human; source: Hi5 insect cells, co-expressed as CENP-HIKM, purified (Ni-NTA, Mono Q, SEC)

binding result (CENP-C^[…]): binds
B4: CENP-L (natural protein, human, UniProt Q8N0S6 1-344, looked up)
chain: MDSYSAPESTPSASSRPEDYFIGATPLQKRLESVRKQSSFILTPPRRKIPQCSQLQEDVDPQKVAFLLHKQWTLYSLTPLYKFSYSNLKEYSRLLNAFIVAEKQKGLAVEVGEDFNIKVIFSTLLGMKGTQRDPEAFLVQIVSKSQLPSENREGKVLWTGWFCCVFGDSLLETVSEDFTCLPLFLANGAESNTAIIGTWFQKTFDCYFSPLAINAFNLSWMAAMWTACKMDHYVATTEFLWSVPCSPQSLDISFAIHPEDAKALWDSVHKTPGEVTQEEVDLFMDCLYSHFHRHFKIHLSATRLVRVSTSVASAHTDGKIKILCHKYLIGVLAYLTELAIFQIE
notes: CENP-L, human; source: Sf9, co-expressed with CENP-N (MultiBac), purified (Ni-NTA, SEC)

binding result (CENP-OPQUR sub-complex): binds
B5: CENP-LN sub-complex (complex)
chain 1: B4 chain
chain 2: not shown
notes: CENP-L, human; CENP-N, human, full length; In the cryo-EM sample CENP-LN was co-expressed with GST-CENP-C^[…]; also called CENP-LN heterodimer; wild-type CENP-LN; source: Sf9 (MultiBac), purified (Ni-NTA, SEC)

One block for each binder: values may come before it.
